From US20240131022A1 (published 2024)
Values joined by “and” are separate entries in the source; they are usually repeats but may differ in a detail not shown here. Equal values may be shown once. Read-outs that look alike come from different tables or passages of the source.

Experiments:
[1] = system: fentanyl-induced overdose in rats; conditions: for full recovery time: 1.24 umol/kg; for full recovery time / mean overdose reversal time / mean reversal time: intranasal; for mean reversal time: equimolar basis; for Average total recovery time: n=5; for Average recovery time: NB 0.1 mg/kg IN
[2] = system: rats, fentanyl-induced overdose model; test: Cold ethanol tail flick test (TFT), maximum possible analgesia; type: in vivo, Rattus norvegicus, Wistar; conditions: for percent of maximum possible analgesia (% MPA): 40 min after intervention, single agents; for PT + 40 TFT: 40 minutes after fentanyl
[3] = system: rats, fentanyl-induced overdose model; test: Respiratory rate and RR AUC in fentanyl-induced overdose model; type: in vivo, Rattus norvegicus, Wistar; conditions: compared to the naloxone or NB33 alone groups

Compound: C=CCN1CC[C@]23c4c5ccc(O)c4O[C@H]2C(=O)CC[C@@]3(O)[C@H]1C5
- full recovery time [1]: 96 ± 24 s
- mean overdose reversal time ([1]; NX alone 0.1 mg/kg): 11.4 ± 2.7 min
- mean overdose reversal time ([1]; NX alone 0.2 mg/kg): 4.8 ± 1.0 min
- mean reversal time ([1]; high dose 0.62 umol/kg): 288 ± 130 s
- mean reversal time ([1]; low dose 0.31 umol/kg): 684 ± 159 s
- Average total recovery time ([1]; NX 0.16 μmol/kg (0.1 mpk) IN, fentanyl 0.130 mg/kg IM): 684 ± 356 s
- Average total recovery time ([1]; NX 0.32 μmol/kg (0.2 mpk) IN, fentanyl 0.130 mg/kg IM): 288 ± 130 s
- shortest time to reverse an overdose ([1]; naloxone alone, irrespective of the dose (FIG. 1C)): ≥ 90 s
- percent of maximum possible analgesia (% MPA) [2]: 5%

Compound: Oc1ccc2c3c1O[C@H]1[C@@H](O)CC[C@@]4(O)[C@@H](C2)N(CC2CCC2)CC[C@]314
- Average recovery time ([1]; 5 F): 5040 s
- Average recovery time ([1]; 5 M): 5760 s
- Average recovery time ([1]; group average): 5400 s
- mean overdose reversal time ([1]; NB alone): 90 ± 9.9 min
- alertness recovery ([1]; fentanyl-induced overdose model): the last or next to last reflex to recover
- percent of maximum possible analgesia (% MPA) [2]: 100%
- MPA % average by sex ([2]; NB 0.1 mg/kg, 5 F): 100%
- PT + 40 TFT ([2]; NB 0.1 mg/kg, 5 F, cutoff 40 seconds): >40 s
- MPA % average by sex ([2]; NB 0.1 mg/kg, 5 M): 100%
- PT + 40 TFT ([2]; NB 0.1 mg/kg, 5 M, cutoff 40 seconds): >40 s
- MPA % average ([2]; NB 0.1 mg/kg, group): 100%
- PT + 40 TFT ([2]; NB 0.1 mg/kg, group average): >40 s

Compound: C=CCN1CCC23c4c5ccc(OC(=O)/C=C/C=C/C)c4OC2C(=O)CCC3(O)C1C5 (centres unmarked) [NX90, 3-hexadienoate derivative of naloxone]
- full recovery time [1]: 84 ± 24 s
- mean reversal time ([1]; high dose 0.62 umol/kg): 102 ± 58 s
- Total recovery time ([1]; individual rats, NX90 0.64 μmol/kg (0.52 mpk) IN, fentanyl 0.130 mg/kg IM): 180 seconds and 60 seconds (4×)
- mean reversal time ([1]; low dose 0.31 umol/kg): 372 ± 90 s
- Average total recovery time ([1]; NX90 0.16 μmol/kg (0.13 mpk) IN, fentanyl 0.130 mg/kg IM): 372 ± 201 s
- Average total recovery time ([1]; NX90 0.32 μmol/kg (0.26 mpk) IN, fentanyl 0.130 mg/kg IM): 102 ± 58 s
- Average total recovery time ([1]; NX90 0.64 μmol/kg (0.52 mpk) IN, fentanyl 0.130 mg/kg IM): 84 ± 54 s
- total severity of respiratory depression, RR AUC (RR×min) [3]: significantly lower

Compound: C/C=C/C=C/C(=O)Oc1ccc2c3c1OC1C(O)CCC4(O)C(C2)N(CC2CCC2)CCC314 (centres unmarked) [NB33, 3-hexadienoate derivative of nalbuphine]
- effectiveness as OD reversal agent ([1]; alone, any dose): not an effective OD reversal agent at any dose
- mean reversal time ([1]; high dose 0.62 umol/kg): 1272 ± 278 s
- mean reversal time ([1]; low dose 0.31 umol/kg): 1548 ± 173 s
